# Ab-14 heavy chain CDR variants: yeast mating affinities

Values reported by Li et al. 2023, doi:10.1038/s41467-023-39022-2 (FLAb copy).

The target is the same throughout: PDVDLGDISGINAS, from the HR2 region of SARS-CoV-2 spike.

Each scFv is VH, a 15-residue (Gly4Ser)3 linker, VL, as in the parent Ab-14, and differs from it in the CDRs of the heavy chain only.
VH: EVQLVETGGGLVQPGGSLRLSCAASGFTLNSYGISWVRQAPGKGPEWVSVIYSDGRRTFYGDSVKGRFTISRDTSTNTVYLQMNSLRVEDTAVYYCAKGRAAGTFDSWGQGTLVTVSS
VL: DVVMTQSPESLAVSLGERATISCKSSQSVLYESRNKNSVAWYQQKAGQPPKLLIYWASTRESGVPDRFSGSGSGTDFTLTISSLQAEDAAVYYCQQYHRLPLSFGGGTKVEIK

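Phage display of a naive human antibody library on the peptide gave the parent. Designed CDR sequences, proposed from the first random library and measured here. Several design methods are mixed in this list. In AlphaSeq, yeast of one mating type display the scFv and yeast of the other type display the target. Mating (16 h, 30 °C) was followed by selection of diploids and sequencing of their barcodes. Scores were corrected for input abundance and mapped to Kd with protein pairs of known affinity run in the same pool. The assay was run in six technical replicates.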

The parent's heavy chain CDRs are GFTLNSYGIS, VIYSDGRRTFYGDSVK, GRAAGTFDS; each variant's own CDRs replace them letter for letter. This list holds designs with at most six substitutions. Numbers give log10(Kd / nM), so 0 is 1 nM and 3 is 1 µM. Smaller is tighter. Where no diploid with the target was found in that replicate, the entry reads "ND": below detection, most likely a poor binder, though not proof of it. Where one sequence has several entries in the source, the replicates are listed entry by entry, parted by semicolons.

* GFTLNSYGIS, VIYSDGCRTFYSDSVK, GRAALGFDS = ND, ND, ND, ND, ND, ND
* GFTLNSYGIS, VIYSDGRRTAYGDSVK, GRNAGTFDS = 1.15, 0.95, 1.25, 0.61, 0.98, 0.77; 0.29, 0.85, 0.41, 0.85, 0.42, 0.13
* GFTLNSYGIS, VIYADGRRTFYGDSVK, GRAYGTFDS = ND, ND, ND, ND, ND, ND
* GFDLNSYWIS, VIYSDGRRTFYGGSVK, GRAAGWFNS = ND, ND, ND, ND, ND, ND
* GFDLNEYGIS, VIYADGRRTFYVDSVK, GVNAGTFDS = -0.32, -0.42, -0.30, -0.48, -0.42, -0.17
* KFDLNSYGIS, VIYSDGRRTFYQDSVK, GQAAGTFDS = ND, ND, 1.22, ND, ND, ND
* GFSLNSYGIS, VIYSDGRRTFYGDSVK, GWTAGTFDD = 1.27, ND, 0.78, 0.08, 0.78, ND
* GFELNSYGIS, VIYSDGRRTFYHDSVK, GNAAGTFDS = 1.17, 0.36, 0.49, 0.45, 0.67, 0.55
* GFTLNEYGIS, VIYSDGRRTFYHDSVK, GRAAGTFMS = ND, ND, ND, ND, ND, ND
* GFSLNSYGIS, VIYSDGMRTFYGDSVK, GRAPGTFDS = 1.90, 2.03, 2.31, ND, 1.20, 1.44
* GFTLNEYGIS, VIYSDGRRTFYSDAVK, GRFAGTFDS = 0.14, 0.07, -0.39, 0.04, 0.01, 0.84
* GFWLNDYGIS, VIYSDGRRTFYGDAVK, GRAAGTFDI = 1.33, 1.89, 1.03, 1.57, 2.57, 1.82
* GFDLNSYGIS, VIYSDGRRTFYADRVK, GNAAGTFDS = 1.43, 1.67, 1.21, 1.40, 1.53, 1.99
* GFTLNDYGIS, VIYSDGRRTFYLDSVK, GRAAGTFDK = 1.21, 1.49, 1.54, 0.97, 1.20, 1.55
* GFTLNSYGIS, VIYSDGRRTQYGDSVK, HRAAKTFDS = ND, ND, ND, ND, ND, ND
* GFELNTYGIS, VIYSDGRRTFYGDSVK, GRTAGTFDS = ND, ND, ND, ND, ND, ND
* GFTLNMYGIS, VIYSDGRRTFYQDSVK, GRAAGTFDS = ND, ND, ND, ND, ND, ND
* GFTLNDYGIS, VIYSDGRRTFYGDSVK, GRMAGTFES = 2.45, ND, 1.03, 3.83, 1.52, 1.07
* GFSLNEYGIS, VIYSDGRRTFYGDMVK, GRTAGTFDS = 0.40, 1.46, 0.58, 0.84, 0.61, 0.11
* GFTLNSYGIS, VIYSDGRRWFYDDSVK, GQLAGTFDS = ND, ND, ND, ND, ND, ND
* GFSLNSYGIS, VIYSDGKRTFYADSVK, GQAAGTFDS = 0.38, 0.10, 0.18, -0.03, 0.02, 0.11
* GFTLNSYGIS, VIYSDGVRTFYGDSVK, TRAAGTFDS = ND, ND, ND, ND, ND, ND
* GFTLNSYGIS, VIYSDGQRTFYGDSVK, GRARGTFDS = ND, ND, ND, ND, ND, ND
* GFTLNQYGIS, VINSDGRRDFYSDSVK, GRAAGFFDS = ND, ND, ND, ND, ND, ND
* GFTLTSYGIS, VIYADGRRTFYGDSVK, GRAAGTFDS = 0.42, 0.98, 0.91, 1.05, 0.72, 0.67; 0.17, 0.02, 0.67, 0.57, -0.09, -0.22
* GFTLNSYGIS, VIYSDGQRTFYSDSVK, GRAVGTFDS = ND, ND, ND, ND, ND, ND
* GFTLNSYGIS, VIYSDGRKTFYGDSVK, GRTAGTFDL = ND, ND, ND, ND, 1.50, ND
* GFELNEYGIS, VIYSDGRRTFYMDSVK, GRTAGTFDT = 0.50, 0.02, 0.13, 0.06, 0.54, 0.41
* GFQLNSYGIS, VIYSDGRRTFYGDNVK, GQTAGTFDS = ND, 2.20, ND, 0.87, 0.95, ND
* GFELNEYGIS, VIYSDGRRTFYGDSVK, GRAAGTFDE = 0.47, 0.31, 1.04, 0.33, 0.33, 0.42
* GFELNSYGIS, VIYSDGRRTFYSDSVK, GRSAGTFDS = ND, 0.91, ND, 0.54, ND, 2.25
* GFTLNEYGIS, VIYSDGRRTFYTDSVK, GRFAGTFDK = 0.84, 0.72, 1.43, 1.27, 0.52, 1.30
* GFSLNNYGIS, VIYSDGRRTFYGDSVK, GRQAGTFDS = 0.47, 0.63, 0.71, 1.16, 0.54, 0.52
* GFTLMSYGIS, VIYSDGRRTFYGDSVK, GRWAGPFDS = ND, ND, ND, ND, ND, ND
* GFTLNDYGIS, VIYSDGRRTFYIDSVK, GRAAGTFVS = 3.46, ND, ND, ND, ND, ND
* GFTLNEYGIS, VYYSDGRRTFYTDSVK, GRFAGTFDS = ND, ND, ND, ND, ND, ND
* GFTLNGYGIS, VIYSDGRRTFYSDSVK, GTAAGFFDS = 1.36, 1.28, 0.71, 1.24, 0.29, 1.33
* GFDLNSYGIS, VIYSDGRRTFYIDDVK, GNAAGTFDS = -0.40, -0.12, 0.45, 0.13, -0.31, -0.10
* GFTLNSYGIS, VIYSDGKRTFYADQVK, GREAGTFDS = 0.32, 0.15, 0.51, 0.78, 0.37, 0.67
* GFDLNEYGIS, VIYSDGRRTFYTDSVK, GRAAGTFDS = ND, ND, ND, ND, ND, ND
* GFTLNSYGIS, VIYSDGRRTFYTDSVK, GNAAGTFDS = 1.09, 1.02, 0.97, 0.79, 1.33, 1.06
* GFTLDSYGIS, VIYSDGRRTFYGDSVK, GRAAGTFVQ = ND, ND, ND, ND, ND, ND

The opening 6 entries, copied out:

CDR-H1	CDR-H2	CDR-H3	replicates, log10 nM
GFTLNSYGIS	VIYSDGCRTFYSDSVK	GRAALGFDS	ND, ND, ND, ND, ND, ND
GFTLNSYGIS	VIYSDGRRTAYGDSVK	GRNAGTFDS	1.15, 0.95, 1.25, 0.61, 0.98, 0.77; 0.29, 0.85, 0.41, 0.85, 0.42, 0.13
GFTLNSYGIS	VIYADGRRTFYGDSVK	GRAYGTFDS	ND, ND, ND, ND, ND, ND
GFDLNSYWIS	VIYSDGRRTFYGGSVK	GRAAGWFNS	ND, ND, ND, ND, ND, ND
GFDLNEYGIS	VIYADGRRTFYVDSVK	GVNAGTFDS	-0.32, -0.42, -0.30, -0.48, -0.42, -0.17
KFDLNSYGIS	VIYSDGRRTFYQDSVK	GQAAGTFDS	ND, ND, 1.22, ND, ND, ND

The range of this assay differs from that of the first round, and the authors advise against merging the two. The authors averaged sequences with at least three values out of six and counted those with two or fewer as poor binders. As a blank, each scFv also met three strains without target: over all heavy chain designs, 1% of these pairings were detected, typically at 2.08 and seldom below 0.84. Of ten entries with the parent sequence, four were seen in most replicates (averages 0.34 to 2.37), three in one and three in none, so single entries are noisy.